Rango complex inh: inhibitors of Rango-importin beta complex formation; Rango CFP/YFP FRET sensor + importin beta, 45 min; Potency, µM (highest dose often 92.2 µM), for inactives: at the top dose inhibition of complex formation; 340,000 tested, 0.031% active;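 further: potency means the concentration at half of the fitted maximal effect; 0% = DMSO wells and 100% = buffer wells lacking importin beta; nearly all actives have a fitted effect of over 15% in size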
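Inhibition scored from the CFP 486 nm/YFP 530 nm FRET ratio 45 min after adding 0.125 microM importin beta to 50 nM Rango biosensor preincubated 5 min with compound (room temperature, PBS with DTT, Tween-20, BSA). No-importin wells as positive control.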
Rango dissoc inh: inhibitors of RanGTP-induced Rango-importin beta complex dissociation | O95149+P62826 | Biochemical FRET Rango-importin beta, RanGTP-induced dissociation | Potency, µM (doses to about 46.1 µM), inactives show top-dose activity change, negative = inhibition | 340,000 tested, 0.071% active; further: potency means the concentration at half of the fitted maximal effect; % of control where 0% means no effect; nearly all actives have a fitted effect of over 45% in size
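Recombinant Rango FRET biosensor (EYFP–snurportin 1 IBB–cerulean CFP10) at 0.1 uM premixed with 0.25 uM importin beta in PBS, 1 mM DTT, 0.02% Tween-20, 0.1% BSA. Compound added 5 min; RanGTP-RCC1 (0.6 uM Ran, 2 mM GTP, 0.2 uM RCC1) then triggers release, read at 45 min.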
Giardia kill: kills Giardia lamblia | 340,000 tested, 0.15% active | Giardia lamblia trophozoite viability | AID 540267 | activity change, % at 7.66 µM, hits read low; in the data active means activity change below about -80%; inconclusive means between about -30% and that limit;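 further: parasites exposed to compound for two days anaerobically before the ATP read; on the % scale 0 is the no-effect control and ±100 the full control effect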
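Giardia lamblia trophozoites (100 cells/well) were incubated with compounds for 48 h at 37 deg C under anaerobic conditions. Viability was read as ATP content by one-step luminescence after 15-30 min at room temperature.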
a7 integrin act: integrin-mediated muscular dystrophy alleviation activation; 350,000 tested, 0.064% active; alpha7betagal myoblasts, beta-gal FDG fluorescence, 48 h; AID 624291; Potency, µM (highest dose often 38.3 µM), inactives show at the highest dose activation, actives largely listed as activators; active means well fitted activation curve with a large enough effect; inconclusive means small, poorly fitted or top-dose-only effect; inactive means no such curve, though single readings can be large or run the other way;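 further: potency means the concentration at half of the fitted maximal effect; 100% = response of the positive control SU9516; nearly all actives have a fitted effect of over 60% in size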
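Alpha7betagal+/- myoblasts (passage 13) were plated 16-24 hr, then exposed to compounds (1:260 dilution of DMSO stock) for 48 hours at 37C. After MPER lysis, β-galactosidase reporter activity was read as FDG fluorescence (ex 480/em 540) after 30 minutes.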
uPA surface inh: cell surface uPA generation inhibition; cell surface uPA generation assay, qHTS; Potency, µM (highest dose often 38.3 µM), without a hit: top-dose activity change, negative = inhibition, usual class: inhibitors; 330,000 tested, 0.31% active; AID 540303; active means well fitted inhibition curve with a large enough effect; inconclusive means small, poorly fitted or top-dose-only effect; inactive means no such curve, though single readings can be large or run the other way; tested in mouse RAW 264.7 cells; further: potency means the concentration at half of the fitted maximal effect; on the % scale 0 is the no-effect control and ±100 the full control effect; nearly all actives have a fitted effect of over 55% in size
Active calls of the source: *; u = inconclusive; x = not tested or not shown; [ ] = another dose, or the depositor's remark. Rows were chosen to be rich in hits. Some 0.59% of all compounds tested hit in one or more screens of this group. Unless noted, the call rests on the fitted dose curve.

The opening two entries as a preview:
Assay codes: A = Rango complex inh; B = Rango dissoc inh; C = Giardia kill; D = a7 integrin act; E = uPA surface inh
SMILES: CCc1c2c(nc3ccc(OC)cc13)-c1nc3ccccc3c(=O)n1C2
  A = x	B = x	C = -9.3	D = x	E = x
SMILES: CCS(=O)(=O)Nc1ccc(-c2cc(-c3ccccc3)c3cc(C)ccc3n2)cc1
  A = u	B = u	C = u	D = 21.1%	E = -2.0%

Main list (from the top)
Assay codes: A = Rango complex inh; B = Rango dissoc inh; C = Giardia kill; D = a7 integrin act; E = uPA surface inh
SMILES: CCc1c2c(nc3ccc(OC)cc13)-c1nc3ccccc3c(=O)n1C2
  A = x	B = x	C = -9.3	D = x	E = x
SMILES: CCS(=O)(=O)Nc1ccc(-c2cc(-c3ccccc3)c3cc(C)ccc3n2)cc1
  A = u	B = u	C = u	D = 21.1%	E = -2.0%
SMILES: Cc1ccc2nc(-c3ccc(NS(C)(=O)=O)cc3)cc(-c3ccccc3)c2c1
  A = u	B = 8.91µM*	C = u	D = -45.3%	E = x
SMILES: O=[N+]([O-])c1ccc(-c2nc(-c3cccs3)c(-c3cccs3)[nH]2)cc1
  A = 9.2µM*	B = -17.2%	C = 1.1	D = -52.2%	E = 0.2%
SMILES: Cc1noc(C)c1C(=O)Nc1ccccc1N1CCOCC1
  A = 5.0%	B = 12.3%	C = -10.2	D = -19.6%	E = 13.0%
SMILES: C[C@@]12C(=O)OC(=O)[C@]1(C)C1CCC2O1
  A = 2.2%	B = u	C = -94.1*	D = x	E = -15.0%
SMILES: CC12C(=O)N(c3nccs3)C(=O)C1(C)C1CCC2O1 (configuration not stated)
  A = 5.0%	B = 4.1%	C = -6.4	D = 21.6%	E = -5.9%
SMILES: CC(=O)c1ccc(N=Nc2ccc(N)cc2)cc1
  A = 0.5%	B = 32.1%	C = 10.3	D = 43.5%	E = 3.98µM*
SMILES: CC(=O)c1ccc(N=Nc2c(C)[nH][nH]c2=O)cc1
  A = 1.6%	B = -9.3%	C = -3.2	D = 11.3%	E = -4.1%
SMILES: CC1(c2ccc(OC(F)F)cc2)NC(=O)N(CC(=O)N2CCN(C(=O)c3ccco3)CC2)C1=O (configuration not stated)
  A = 3.0%	B = -14.8%	C = -19.7	D = 22.0%	E = 14.7%
SMILES: O=c1[nH]cc(CCCc2ccccc2)c(=O)[nH]1
  A = x	B = x	C = x	D = 16.6%	E = x
SMILES: CCOC(=O)Cc1csc(NC(=S)NC(=O)c2cc(OC)c(OC)c(OC)c2)n1
  A = 0.0%	B = 5.4%	C = -12.7	D = 3.55µM*	E = -14.8%
SMILES: CCOC(=O)Cc1csc(NC(=S)NC(=O)c2ccc(F)cc2)n1
  A = 0.0%	B = 1.9%	C = -1.5	D = 23.6%	E = -0.7%
SMILES: COCCCNC(=S)N1CCN(C(c2ccccc2)c2ccccc2)CC1
  A = -0.4%	B = -5.5%	C = -0.4	D = 0.8%	E = -22.3%
SMILES: Cc1cc(C)n2c(Nc3ccccc3)c(-c3ccc(C)o3)nc2n1
  A = x	B = x	C = 20.9	D = x	E = x
SMILES: COc1ccc(Cl)cc1NC(=O)CN(C)C(=O)c1cn2ccccc2n1
  A = -0.5%	B = 3.1%	C = -19.9	D = 73.1%	E = 11.2µM*
SMILES: COc1ccc([C@@H]2CC(=O)c3c(O)cc(O)cc3O2)cc1O
  A = 4.1%	B = -2.8%	C = -9.1	D = x	E = 25.2%
SMILES: COc1c(CC=C(C)C)cc(C2CC(=O)c3c(O)cc(O)cc3O2)cc1CC=C(C)C (configuration not stated)
  A = -0.1%	B = -12.4%	C = -8.0	D = -38.3%	E = 7.94µM*
SMILES: Clc1ccc(OCc2nc(-c3ccccn3)no2)c(Br)c1
  A = -0.9%	B = 0.5%	C = 2.4	D = -21.4%	E = 3.55µM*
SMILES: Clc1ccccc1OCc1nc(-c2ccccn2)no1
  A = 2.7%	B = -2.5%	C = 3.3	D = -10.7%	E = 3.5%
SMILES: CN1Cc2c(N3CCOCC3)nc(SCc3ccccc3)c(C#N)c2CC1(C)C
  A = u	B = 8.2µM*	C = 9.6	D = 11.1%[7.66 µM]	E = x
SMILES: COC(=O)Cc1c(O)ccn(Cc2ccc3c(c2)OCO3)c1=O
  A = 2.1%	B = -8.8%	C = -1.1	D = 10µM*	E = x
SMILES: O=C(Nc1ccc2c(c1)[C@@H]1C[C@@H](CC(=O)N3CCOCC3)O[C@@H](CO)[C@@H]1O2)NC1CCCC1
  A = x	B = x	C = x	D = 28.5%	E = x
SMILES: COc1cc(/C=C2\SC(=S)N(NS(=O)(=O)c3ccc(C)cc3)C2=O)ccc1O
  A = 41.1µM*	B = u	C = 5.0	D = -24.2%	E = 4.5%
SMILES: CCOc1cc(/C=C2\SC(=S)N(NS(=O)(=O)c3ccc(C)cc3)C2=O)ccc1O
  A = 23.1µM*	B = 16.9%	C = -6.3	D = 38.5%	E = 20.8%

Arranged by value in Rango complex inh (descending): three of the compounds above.
| compound | Rango complex inh |
| --- | --- |
| COc1cc(/C=C2\SC(=S)N(NS(=O)(=O)c3ccc(C)cc3)C2=O)ccc1O | 41.1µM* |
| CCOc1cc(/C=C2\SC(=S)N(NS(=O)(=O)c3ccc(C)cc3)C2=O)ccc1O | 23.1µM* |
| O=[N+]([O-])c1ccc(-c2nc(-c3cccs3)c(-c3cccs3)[nH]2)cc1 | 9.2µM* |

Next part:
Assay codes: A = Rango complex inh; B = Rango dissoc inh; C = Giardia kill; D = a7 integrin act; E = uPA surface inh
SMILES: COc1cc(/C=C2\SC(=S)N(NS(=O)(=O)c3ccccc3)C2=O)ccc1O
  A = u	B = 19.7%	C = -7.9	D = -4.0%	E = -1.1%
SMILES: COc1cc(/C=C2\SC(=S)N(NS(=O)(=O)c3ccc(C)cc3)C2=O)cc(OC)c1OC
  A = 12.4%	B = -13.1%	C = -26.4	D = -11.0%	E = 1.5%
SMILES: COc1cccc(NC(=O)COC(=O)C2CC3CCCC(C2)C3=O)c1 (configuration not stated)
  A = 4.0%	B = 5.7%	C = 7.1	D = 0.3%	E = 8.9%
SMILES: CCN(CC)C(=O)C1=C(C)N(Cc2ccccc2)C(=O)C(CC(=O)NC2CC2)C1 (configuration not stated)
  A = x	B = x	C = x	D = 13.5%	E = x
SMILES: COc1ccc([C@H]2C[C@H](n3cc(-c4ccc(F)cc4)nn3)[C@@H](O)CN2C(=O)C2CCCCC2)cc1
  A = x	B = x	C = x	D = 8.2%	E = x
SMILES: CC(=O)Nc1ccc(/C=C2\Sc3ccccc3C2=O)cc1
  A = u	B = u	C = 11.4	D = 5.2%	E = 0.4%
SMILES: Cc1ccc(/C=C2\Sc3ccccc3C2=O)s1
  A = u	B = 2.91µM*	C = -11.8	D = -22.4%	E = 0.4%
SMILES: Cn1c(=O)c2c(-c3ccccc3)n(-c3ccccc3S)cc2n(C)c1=O
  A = x	B = x	C = x	D = -13.6%	E = x
SMILES: COc1ccc(-c2nc3ccc(C)cn3c2NCc2ccccc2)cc1SC1CCCCC1
  A = u	B = u	C = 3.4	D = -43.0%	E = 3.16µM*
SMILES: CCC(C)Sc1cc(-c2nc3ccc(C)cn3c2NCc2ccccc2)ccc1OC (configuration not stated)
  A = u	B = 14.6µM*	C = 41.4	D = -42.5%	E = 4.47µM*
SMILES: CCCCNc1c(-c2ccc(SC3CCCCC3)c(OC)c2)nc2ccc(C)cn12
  A = u	B = 7.31µM*	C = 11.5	D = -37.7%	E = u
SMILES: CCCCNc1c(-c2ccc(OC)c(SC(C)CC)c2)nc2ccc(C)cn12 (configuration not stated)
  A = u	B = u	C = -13.5	D = -40.4%	E = u
SMILES: CCCCNc1c(-c2ccc(OC)c(SC3CCCCC3)c2)nc2ccc(C)cn12
  A = u	B = u	C = -26.0	D = -46.5%	E = u
SMILES: CCC(C)Sc1ccc(-c2nc3ccc(C)cn3c2NCc2ccccc2)cc1OC (configuration not stated)
  A = u	B = u	C = -1.4	D = -41.6%	E = 5.62µM*
SMILES: O=C(OCC(O)C(O)C(O)C(SCc1ccccc1)SCc1ccccc1)c1ccccc1 (configuration not stated)
  A = -0.4%	B = 0.9%	C = 8.7	D = 6.3%	E = 9.5%
SMILES: O=C(CNC(=O)C(c1ccccc1)c1ccccc1)OCC(=O)c1ccc2ccccc2c1
  A = x	B = x	C = 6.4	D = x	E = x
SMILES: O=C1C=C(C2OC(CO)C(O)C2O)C(=O)N1 (configuration not stated)
  A = 0.8%	B = -2.9%	C = -3.0	D = -29.2%	E = u
SMILES: COc1ccc(-c2cc(-c3nc4ccccn4c3NCc3ccccc3)ccc2OC)cc1
  A = u	B = 25.9µM*	C = -2.5	D = -34.0%	E = 5.62µM*
SMILES: CCCCOc1ccc(C(=O)Nc2cc(C)c(OCC(=O)N3CCOCC3)c(C)c2)cc1
  A = -3.6%	B = -11.3%	C = -8.3	D = -31.4%	E = -5.0%
SMILES: Cc1cc(NC(=O)c2ccc(Cl)cc2)cc(C)c1OCC(=O)N1CCOCC1
  A = 4.0%	B = -10.9%	C = u	D = 5.9%	E = 3.98µM*
SMILES: Cn1c(/C(C#N)=C(\O)c2ccc(Cl)s2)nc2ccccc21
  A = 0.2%	B = -12.5%	C = -5.4	D = 27.6%	E = 9.1%
SMILES: Cn1c(/C(C#N)=C(\O)c2ccc([N+](=O)[O-])s2)nc2ccccc21
  A = 0.7%	B = 9.7%	C = -86.1*	D = -0.6%	E = -1.4%
SMILES: CCOc1ccccc1N1CCN(C(=O)c2cc3ccccc3cc2OC)CC1
  A = 3.1%	B = 31.9%	C = -17.3	D = 0.0%	E = 3.55µM*
SMILES: CC(C)C[C@H]1COc2cc(Br)ccc2S(=O)(=O)N1
  A = x	B = x	C = x	D = -18.4%	E = x
SMILES: O=S1(=O)N[C@@H](CC2CCCCC2)COc2cc(Br)ccc21
  A = -0.9%	B = -19.1%	C = -16.1	D = -3.0%	E = 1.58µM*
